{"source": "PubChem BioAssay AID995", "about": "(National Center for Advancing Translational Sciences (NCATS), 2007)", "note": "The list shows a part of the results, in another mix than the full data. Inconclusive results are not listed. Active and inactive are the calls of the source. Calls come from the whole dose curve; as a rule, active = well fitted inhibition curve with a large enough effect; inconclusive = small, poorly fitted or top-dose-only effect; inactive = no such curve, though single readings can be large or run the other way. % is set by controls: 0 for no effect and ±100 for the full control effect.", "data": [{"test": "qHTS Assay for Inhibitors of the ERK Signaling Pathway using a Homogeneous Screening Assay; note: nearly all actives have a fitted effect of over 55% in size", "conditions": "HEK293-V1b, vasopressin-stimulated pERK AlphaScreen; at 57.5 µM (top of the series) unless noted", "values": [{"smiles": "N1=C(c2nnc(-c3nn[nH]n3)nn2)NNN1", "activity, negative = inhibition": "inactive: -11% [at 11.5 µM]"}, {"smiles": "CP(=S)(Nn1cnnc1)Oc1ccccc1", "note": "(configuration not stated)", "activity, negative = inhibition": "inactive: -16.5%"}, {"smiles": "CP(=O)(NC(=O)Nc1ccccc1)Oc1ccccc1", "note": "(configuration not stated)", "activity, negative = inhibition": "inactive: -10.2%"}, {"smiles": "CCOP(C)(=S)SCC(=O)NC(C)C(=O)O", "note": "(configuration not stated)", "activity, negative = inhibition": "inactive: 1.62%"}, {"smiles": "O=[N+]([O-])[O-].[NH4+]", "activity, negative = inhibition": "inactive: 0.544%"}, {"smiles": "COc1ccccc1OP(C)(=O)Nc1ccc(C)cc1", "note": "(configuration not stated)", "activity, negative = inhibition": "inactive: 1.17%"}, {"smiles": "Cc1ccc(NP(C)(=O)Oc2ccccc2)c(C)c1", "note": "(configuration not stated)", "activity, negative = inhibition": "inactive: 6.79%"}, {"smiles": "O=[N+]([O-])c1cccc([N+](=O)[O-])c1", "activity, negative = inhibition": "inactive: 5.94%"}, {"smiles": "Cc1ccc([N+](=O)[O-])cc1[N+](=O)[O-]", "activity, negative = inhibition": "inactive: -0.442%"}, {"smiles": "Cc1ccc(C)c(NP(C)(=O)Oc2ccccc2)c1", "note": "(configuration not stated)", "activity, negative = inhibition": "inactive: 6.59%"}, {"smiles": "Cc1nc2ccc3ccccc3c2s1.O=[N+]([O-])c1cc([N+](=O)[O-])c(O)c([N+](=O)[O-])c1", "activity, negative = inhibition": "inactive: -15.6%"}, {"smiles": "CN(C)CCOC(=O)C(O)(c1ccccc1)C1CCCCC1", "note": "(configuration not stated)", "activity, negative = inhibition": "inactive: 3.11%"}, {"smiles": "Cc1c([N+](=O)[O-])cccc1[N+](=O)[O-]", "activity, negative = inhibition": "inactive: 13.8%"}, {"smiles": "Cc1ccc([N+](=O)[O-])c([N+](=O)[O-])c1", "activity, negative = inhibition": "inactive: 8.54%"}, {"smiles": "CCN(CCO)CCO.Oc1c(Cl)c(Cl)c(Cl)c(Cl)c1Cl", "activity, negative = inhibition": "inactive: 37.8% [at 11.5 µM]"}, {"smiles": "CCOP(=O)(CC)OCC", "activity, negative = inhibition": "inactive: 4.36%"}, {"smiles": "CCOP(C)(=S)SCC(=O)NC(C)(CC)C(=O)O", "note": "(configuration not stated)", "activity, negative = inhibition": "inactive: -6.78%"}, {"smiles": "CP(=O)(Nc1ccc2c(c1)OCCO2)Oc1ccccc1", "note": "(configuration not stated)", "activity, negative = inhibition": "inactive: -15.5%"}, {"smiles": "NNC(NN)NN.n1nc(-c2nn[nH]n2)n[nH]1", "activity, negative = inhibition": "inactive: -0.786% [at 11.5 µM]"}, {"smiles": "Cc1ccccc1NP(C)(=O)Nc1ccccc1C", "activity, negative = inhibition": "inactive: -13.2%"}, {"smiles": "CCN(CCCl)Cc1ccccc1C", "activity, negative = inhibition": "inactive: 20.9%"}, {"smiles": "[NH4+].[O-][Cl+3]([O-])([O-])[O-]", "activity, negative = inhibition": "inactive: -0.954%"}, {"smiles": "CP(=O)(Nc1ccccc1F)Oc1ccccc1", "note": "(configuration not stated)", "activity, negative = inhibition": "inactive: 15.7%"}, {"smiles": "CCC(C)(OO)OOC(C)(CC)OO", "note": "(configuration not stated)", "activity, negative = inhibition": "inactive: -3.82%"}, {"smiles": "Cc1cccc([N+](=O)[O-])c1[N+](=O)[O-]", "activity, negative = inhibition": "inactive: -1.64%"}, {"smiles": "COc1ccccc1OP(C)(=O)Nc1ccc(C)c(C)c1", "note": "(configuration not stated)", "activity, negative = inhibition": "inactive: -7.47%"}, {"smiles": "Cc1nc2ccc3ccccc3c2o1.O=[N+]([O-])c1cc([N+](=O)[O-])c(O)c([N+](=O)[O-])c1", "activity, negative = inhibition": "inactive: -3.47%"}, {"smiles": "CP(=O)(Nc1ccccn1)Oc1ccccc1", "note": "(configuration not stated)", "activity, negative = inhibition": "inactive: 5.97%"}, {"smiles": "CP(=O)(Oc1ccccc1)N1CCOC1=O", "note": "(configuration not stated)", "activity, negative = inhibition": "inactive: -15.3%"}, {"smiles": "COc1ccccc1OP(C)(=O)Nc1c(C)n(C)n(-c2ccccc2)c1=O", "note": "(configuration not stated)", "activity, negative = inhibition": "inactive: 41.5%"}, {"smiles": "OCCSCCO", "activity, negative = inhibition": "inactive: 22%"}, {"smiles": "C/C1=C2N=C(/C=C3N=C(/C(C)=C4\\[N-][C@@](C)([C@H]5N=C1[C@@](C)(CCC(=O)NC[C@H](C)OP(=O)([O-])O[C@@H]1[C@H](O)[C@H](n6cnc7cc(C)c(C)cc76)O[C@@H]1CO)[C@@H]5CC(N)=O)[C@](C)(CC(N)=O)[C@H]4CCC(N)=O)[C@@](C)(CC(N)=O)[C@@H]\\3CCC(N)=O)C(C)(C)[C@@H]/2CCC(N)=O.[C-]#N.[Co+3]", "activity, negative = inhibition": "inactive: -8.87% [at 25.7 µM]"}]}]}
